Substitutions are numbered along the chain they refer to.
Target: T1, human trkA receptor immunoadhesin (trkA extracellular domain fused to immunoglobulin constant domains) (human, UniProt P04629 33-423)
T1 construct: extracellular domain; not shown: immunoglobulin constant domains
Assay: competitive displacement of labeled NGF from human trkA immunoadhesin, 96-well plate

B1: NGF124 (ligand)
chain: SSSHPIFHRGEFSVCDSESLWVTDKTTATDIKGKEVMVLGEVNINNSVFKQYFFETKCRDPNPVDSGCRGIDSKHWNSQCKTTQTYVKALTMDGKQAAWRFIRIDTACVCVLSRKAVRRA
  IC50mut/IC50NGF: 1.1 ratio

B2: NGF126 (ligand)
chain: B1 chain with Q79Y
  IC50mut/IC50NGF: 1.6 ratio

B3: NGFR1 (ligand)
chain: B1 chain with T23G, Q79Y, Y86F
  IC50mut/IC50NGF: 1.1 ratio

Source: US6365373 (Genentech, dated 2002)
